Among the data in BindingDB's records for PubMed 2172775 (Neurogenetic, 1990) are Ki values, retold here.

By UniProt entry, the sequences of proteins in these tests, tags left out.
UniProt P18089, whole entry: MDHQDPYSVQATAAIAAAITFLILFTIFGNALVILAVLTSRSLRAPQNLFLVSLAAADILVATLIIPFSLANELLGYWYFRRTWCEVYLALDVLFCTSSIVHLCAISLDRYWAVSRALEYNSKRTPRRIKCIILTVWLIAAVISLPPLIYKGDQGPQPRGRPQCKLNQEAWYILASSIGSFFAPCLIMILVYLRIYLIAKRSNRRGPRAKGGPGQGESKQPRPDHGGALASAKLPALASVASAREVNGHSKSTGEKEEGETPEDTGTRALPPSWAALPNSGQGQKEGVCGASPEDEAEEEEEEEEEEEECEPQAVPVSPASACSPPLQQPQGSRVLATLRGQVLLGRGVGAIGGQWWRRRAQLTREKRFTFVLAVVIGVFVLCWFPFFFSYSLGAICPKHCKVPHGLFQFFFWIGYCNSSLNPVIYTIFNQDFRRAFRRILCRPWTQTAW

The experiment has as its target Alpha-2B adrenergic receptor (Homo sapiens, UniProt P18089).

`Nc1cc(Cl)c(N=C2NCCN2)c(Cl)c1` [p-AMINOCLONIDINE] returned a Ki of 4.5 nM.
